pKi: −log10 of the molar value.
Biological target: 5-HT1A (Homo sapiens, UniProt P08908)
Experiment: biochemical

By UniProt entry, the sequences of proteins in these tests, tags left out.
UniProt P08908, whole entry, species assumed: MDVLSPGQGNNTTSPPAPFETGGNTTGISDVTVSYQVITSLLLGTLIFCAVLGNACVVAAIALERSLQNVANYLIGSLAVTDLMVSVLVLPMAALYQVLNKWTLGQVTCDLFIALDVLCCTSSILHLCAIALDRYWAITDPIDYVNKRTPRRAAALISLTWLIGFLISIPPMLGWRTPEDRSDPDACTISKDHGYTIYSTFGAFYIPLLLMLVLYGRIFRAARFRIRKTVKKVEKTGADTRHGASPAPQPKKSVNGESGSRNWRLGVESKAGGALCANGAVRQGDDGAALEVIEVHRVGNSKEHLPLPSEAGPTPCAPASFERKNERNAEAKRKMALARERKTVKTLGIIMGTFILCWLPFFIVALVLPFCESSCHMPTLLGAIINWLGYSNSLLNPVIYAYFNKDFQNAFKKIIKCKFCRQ

## COc1ccc(-c2c(C)c(C(=O)NC3(C#N)CCCCC3)nn2-c2ccccc2Br)cc1
  pKi: 5.95
